# Only a part is listed here, and it is no random draw. Activity calls are given as the source filed them.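 How the source made its calls: active means inhibition above 20% together with a positive visual image hit; inconclusive means visual image hit but inhibition not above 20%; inactive means no visual image hit.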
# Assay: inhibitors of TNFa-induced NFkB p65 translocation, primary screen, imaging, HUVEC, MLSMR starter and 10KST1 sets (AID 438);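 further: compound added about 3h40 before a 20 min TNFalpha stimulation; signal is the nuclear over cytoplasmic p65 intensity ratio per well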
# Settings: HUVEC TNFa-induced p65 nuclear translocation, at 2 µM, active compounds read high, 0% TNFa-plus-vehicle, 100% no-TNFa wells
row,Structure (SMILES),inhibition
1,Fc1ccccc1NC1CCN(Cc2ccccc2)CC1,inactive: -1.7%
